Experiment: Solubility as observed
Type: physicochemical

Row | Substance | solubility
1 | [Ag(DAPTA)4]BF4 [Compound 7] | water-soluble
2 | [Ag(PTA)4]BF4 [Compound 6] | water soluble
3 | [HB(pz)3]Ag(PCN) [Compound 4] | low solubility in CHCl3
4 | [HB(pz)3]Ag(PTA-SO2) [Compound 3] | low solubility
